Measured values from patent US20090253669A1, “Substituted Sulfonamide Compounds” (GRUENENTHAL GmbH, priority 2008, published 2009).

By UniProt entry, the sequences of proteins in these tests, tags left out.
UniProt P35372, whole entry, looked up: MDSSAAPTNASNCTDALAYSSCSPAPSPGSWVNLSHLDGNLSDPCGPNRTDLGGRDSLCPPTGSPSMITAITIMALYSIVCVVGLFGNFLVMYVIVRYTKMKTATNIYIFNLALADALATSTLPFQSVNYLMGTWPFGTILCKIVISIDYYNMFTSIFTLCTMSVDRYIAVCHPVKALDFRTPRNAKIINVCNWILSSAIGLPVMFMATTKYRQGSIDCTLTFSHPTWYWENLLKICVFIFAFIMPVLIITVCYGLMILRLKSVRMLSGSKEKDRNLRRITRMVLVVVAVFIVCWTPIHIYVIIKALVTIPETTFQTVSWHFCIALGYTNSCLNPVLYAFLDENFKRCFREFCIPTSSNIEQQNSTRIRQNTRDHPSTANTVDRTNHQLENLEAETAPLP

Target: human μ opiate receptor (Homo sapiens, UniProt P35372)
Assay: [3H]-naloxone displacement, SPA, membranes of CHO-K1 cells
Settings: 1 μM test substance; inhibition of specific binding of 1 nmol/l [3H]-naloxone

First: COc1cc(C)c(S(=O)(=O)N(C)CCOCC(=O)N2CCC(c3cccc(F)c3)(N3CCN(C)CC3)CC2)c(C)c1
Second: COc1cc(C)c(S(=O)(=O)N2CCCCC2COCC(=O)N2CCC(c3cccc(F)c3)(N3CCN(C)CC3)CC2)c(C)c1 (stereo not drawn)
The “μ opioid receptor [1 μM] % inhibition” value of the first is lower: 2% for the first, 3% for the second.

Going from CN(C)C1(CCc2ccccc2)CCC(NC(=O)CC2c3ccccc3CCN2S(=O)(=O)c2ccc(Cl)c(Cl)c2)CC1 (stereo not drawn) [Compound 1, 2-(2-(3,4-dichlorophenylsulfonyl)-1,2,3,4-tetrahydroisoquinolin-1-yl)-N-(4-(dimethylamino)-4-phenethylcyclohexyl)acetamide] to CN(C)C1(c2ccccc2)CCC(NC(=O)CC2c3ccccc3CCN2S(=O)(=O)c2ccc(Cl)c(Cl)c2)CC1 (stereo not drawn) [Compound 26, 2-(2-(3,4-dichlorophenylsulfonyl)-1,2,3,4-tetrahydroisoquinolin-1-yl)-N-(4-(dimethylamino)-4-phenylcyclohexyl)acetamide], the “μ opioid receptor [1 μM] % inhibition” value rises from 42% to 102%.

First: COc1cc(C)c(S(=O)(=O)N2CCC(OCC(=O)NC3CCC(CCc4ccccc4)(N(C)C)CC3)C2)c(C)c1 (stereo not drawn) [Compound 5, N-(4-(dimethylamino)-4-phenethylcyclohexyl)-2-(1-(4-methoxy-2,6-dimethylphenylsulfonyl)pyrrolidin-3-yloxy)acetamide]
Second: Cc1cc(C)c(S(=O)(=O)N2CCC(OCC(=O)NC3CCC(CCc4ccccc4)(N(C)C)CC3)C2)c(C)c1 (stereo not drawn) [Compound 29, N-(4-(dimethylamino)-4-phenethylcyclohexyl)-2-(1-(mesitylsulfonyl)pyrrolidin-3-yloxy)acetamide]
The “μ opioid receptor [1 μM] % inhibition” value of the first is lower: 41% for the first, 48% for the second.

First: COc1cc(C)c(S(=O)(=O)N(C)CCOCC(=O)NC2CCC(c3cccc(F)c3)(N(C)C)CC2)c(C)c1 (stereo not drawn) [Compound 6, N-(4-(dimethylamino)-4-(3-fluorophenyl)cyclohexyl)-2-(2-(4-methoxy-N,2,6-trimethylphenylsulfonamido)ethoxy)acetamide]
Second: COc1cc(C)c(S(=O)(=O)N(C)CCOCC(=O)NC2CCC(Cc3ccccc3C)(N(C)C)CC2)c(C)c1 (stereo not drawn) [Compound 10, N-(4-(dimethylamino)-4-(2-methylbenzyl)cyclohexyl)-2-(2-(4-methoxy-N,2,6-trimethylphenylsulfonamido)ethoxy)acetamide]
The “μ opioid receptor [1 μM] % inhibition” value of the first is higher: 98% for the first, 50% for the second.

Going from COc1cc(C)c(S(=O)(=O)N(C)CCOCC(=O)NC2CCC(CCc3ccccc3)(N(C)C)CC2)c(C)c1 (stereo not drawn) [Compound 7, N-(4-(dimethylamino)-4-phenethylcyclohexyl)-2-(2-(4-methoxy-N,2,6-trimethylphenylsulfonamido)ethoxy)acetamide] to COc1cc(C)c(S(=O)(=O)N(C)CCOCC(=O)NC2CCC(Cc3ccccc3)(N3CCCCC3)CC2)c(C)c1 (stereo not drawn) [Compound 17, N-(4-benzyl-4-(piperidin-1-yl)cyclohexyl)-2-(2-(4-methoxy-N,2,6-trimethylphenylsulfonamido)ethoxy)acetamide], the “μ opioid receptor [1 μM] % inhibition” value falls from 55% to 18%.

Going from COc1cc(C)c(S(=O)(=O)N(C)CCOCC(=O)NC2CCC(c3ccccc3)(N3CCCCC3)CC2)c(C)c1 (stereo not drawn) [Compound 11, 2-(2-(4-methoxy-N,2,6-trimethylphenylsulfonamido)ethoxy)-N-(4-phenyl-4-(piperidin-1-yl)cyclohexyl)acetamide] to COc1cc(C)c(S(=O)(=O)N(C)CCOCC(=O)NC2CCC(c3ccccc3)(N3CCCCC3)CC2)c(C)c1C (stereo not drawn) [Compound 28, 2-(2-(4-methoxy-N,2,3,6-tetramethylphenylsulfonamido)ethoxy)-N-(4-phenyl-4-(piperidin-1-yl)cyclohexyl)acetamide], the “μ opioid receptor [1 μM] % inhibition” value falls from 43% to 39%.

Compared with Cc1ccccc1CC1(N(C)C)CCC(NC(=O)CC2c3ccccc3CCN2S(=O)(=O)c2ccc(Cl)c(Cl)c2)CC1 (stereo not drawn) [Compound 12, 2-(2-(3,4-dichlorophenylsulfonyl)-1,2,3,4-tetrahydroisoquinolin-1-yl)-N-(4-(dimethylamino)-4-(2-methylbenzyl)cyclohexyl)acetamide], O=C(CC1c2ccccc2CCN1S(=O)(=O)c1ccc(Cl)c(Cl)c1)NC1CCC(Cc2ccccc2)(N2CCCCC2)CC1 (stereo not drawn) [Compound 15, N-(4-benzyl-4-(piperidin-1-yl)cyclohexyl)-2-(2-(3,4-dichlorophenylsulfonyl)-1,2,3,4-tetrahydroisoquinolin-1-yl)acetamide] is lower in “μ opioid receptor [1 μM] % inhibition” value: 37% for the first, 15% for the second.

First: COc1cc(C)c(S(=O)(=O)N2CCC(OCC(=O)NC3CCC(Cc4ccccc4C)(N(C)C)CC3)C2)c(C)c1 (stereo not drawn) [Compound 14, N-(4-(dimethylamino)-4-(2-methylbenzyl)cyclohexyl)-2-(1-(4-methoxy-2,6-dimethylphenylsulfonyl)pyrrolidin-3-yloxy)acetamide]
Second: COc1cc(C)c(S(=O)(=O)N2CCC(OCC(=O)NC3CCC(c4ccccc4)(N4CCCCC4)CC3)C2)c(C)c1 (stereo not drawn) [Compound 27, 2-(1-(4-methoxy-2,6-dimethylphenylsulfonyl)pyrrolidin-3-yloxy)-N-(4-phenyl-4-(piperidin-1-yl)cyclohexyl)acetamide]
The “μ opioid receptor [1 μM] % inhibition” value of the first is higher: 40% for the first, 27% for the second.

First: O=C(CC1c2ccccc2CCN1S(=O)(=O)c1ccc(Cl)c(Cl)c1)NC1CCC(Cc2ccccc2)(N2CCCCCC2)CC1 (stereo not drawn) [Compound 16, N-(4-(azepan-1-yl)-4-benzylcyclohexyl)-2-(2-(3,4-dichlorophenylsulfonyl)-1,2,3,4-tetrahydroisoquinolin-1-yl)acetamide]
Second: COc1cc(C)c(S(=O)(=O)N(C)CCOCC(=O)NC2CCC(Cc3ccccc3)(N3CCCCCC3)CC2)c(C)c1 (stereo not drawn) [Compound 20, N-(4-(azepan-1-yl)-4-benzylcyclohexyl)-2-(2-(4-methoxy-N,2,6-trimethylphenylsulfonamido)ethoxy)acetamide]
The “μ opioid receptor [1 μM] % inhibition” value of the first is higher: 30% for the first, 7% for the second.

Compared with COc1ccc(S(=O)(=O)N2CCCCC2CCOCC(=O)NC2CCC(c3ccccc3)(N(C)C)CC2)cc1 (stereo not drawn) [Compound 19, N-(4-(dimethylamino)-4-phenylcyclohexyl)-2-(2-(1-(4-methoxyphenylsulfonyl)piperidin-2-yl)ethoxy)acetamide], COc1cc(C)c(S(=O)(=O)N2CCCCC2COCC(=O)N(C)CCCC2CCC(c3ccccc3)(N3CCCC3)CC2)c(C)c1 (stereo not drawn) [Compound 32, 2-((1-(4-methoxy-2,6-dimethylphenylsulfonyl)piperidin-2-yl)methoxy)-N-methyl-N-(3-(4-phenyl-4-(pyrrolidin-1-yl)cyclohexyl)propyl)acetamide] is lower in “μ opioid receptor [1 μM] % inhibition” value: 96% for the first, 66% for the second.

First: CN(C)C1(c2cccc(F)c2)CCC(NC(=O)COCCN(C)S(=O)(=O)c2ccc(Cl)cc2Cl)CC1 (stereo not drawn) [Compound 21, 2-(2-(2,4-dichloro-N-methylphenylsulfonamido)ethoxy)-N-(4-(dimethylamino)-4-(3-fluorophenyl)cyclohexyl)acetamide]
Second: Cc1ccccc1CC1(N(C)C)CCC(NC(=O)COCCN(C)S(=O)(=O)c2ccc(Cl)cc2Cl)CC1 (stereo not drawn) [Compound 30, 2-(2-(2,4-dichloro-N-methylphenylsulfonamido)ethoxy)-N-(4-(dimethylamino)-4-(2-methylbenzyl)cyclohexyl)acetamide]
The “μ opioid receptor [1 μM] % inhibition” value of the first is higher: 100% for the first, 49% for the second.

Compared with CN(CC1CCC(c2ccccc2)(N2CCCC2)CC1)C(=O)CC1CCCCN1S(=O)(=O)c1cccc(C(F)(F)F)c1 (stereo not drawn) [Compound 33, N-methyl-N-((4-phenyl-4-(pyrrolidin-1-yl)cyclohexyl)methyl)-2-(1-(3-(trifluoromethyl)phenylsulfonyl)piperidin-2-yl)acetamide], CN(CCCC1CCC(c2ccccc2)(N2CCCC2)CC1)C(=O)CC1CCCCN1S(=O)(=O)c1cccc(C(F)(F)F)c1 (stereo not drawn) [Compound 37, N-methyl-N-(3-(4-phenyl-4-(pyrrolidin-1-yl)cyclohexyl)propyl)-2-(1-(3-(trifluoromethyl)phenylsulfonyl)piperidin-2-yl)acetamide] is higher in “μ opioid receptor [1 μM] % inhibition” value: 44% for the first, 62% for the second.

Compared with COc1cc(C)c(S(=O)(=O)N(C)CCOCC(=O)N(C)CCC2CCC(c3ccccc3)(N3CCCC3)CC2)c(C)c1 (stereo not drawn) [Compound 34, 2-(2-(4-methoxy-N,2,6-trimethylphenylsulfonamido)ethoxy)-N-methyl-N-(2-(4-phenyl-4-(pyrrolidin-1-yl)cyclohexyl)ethyl)acetamide], COc1cc(C)c(S(=O)(=O)N(C)CCOCC(=O)N(C)CC2CCC(c3ccccc3)(N3CCCC3)CC2)c(C)c1 (stereo not drawn) [Compound 35, 2-(2-(4-methoxy-N,2,6-trimethylphenylsulfonamido)ethoxy)-N-methyl-N-((4-phenyl-4-(pyrrolidin-1-yl)cyclohexyl)methyl)acetamide] is lower in “μ opioid receptor [1 μM] % inhibition” value: 69% for the first, 26% for the second.

Going from CN(C)C1(Cc2ccccc2)CCN(C(=O)COCC2CCc3ccccc3N2S(=O)(=O)c2ccc(Cl)c(Cl)c2)CC1 (stereo not drawn) [Compound 36, 1-(4-benzyl-4-(dimethylamino)piperidin-1-yl)-2-((1-(3,4-dichlorophenylsulfonyl)-1,2,3,4-tetrahydroquinolin-2-yl)methoxy)ethanone] to COc1cc(C)c(S(=O)(=O)N(C)CCOCC(=O)N(C)CCC2CCC(Cc3ccccc3)(N3CCCC3)CC2)c(C)c1 (stereo not drawn) [Compound 39, N-(2-(4-benzyl-4-(pyrrolidin-1-yl)cyclohexyl)ethyl)-2-(2-(4-methoxy-N,2,6-trimethylphenylsulfonamido)ethoxy)-N-methylacetamide], the “μ opioid receptor [1 μM] % inhibition” value falls from 44% to 32%.

Going from CN(CC1CCC(CCc2ccccc2)(N2CCCC2)CC1)C(=O)CC1CCCCN1S(=O)(=O)c1cccc(C(F)(F)F)c1 (stereo not drawn) [Compound 38, N-methyl-N-((4-phenethyl-4-(pyrrolidin-1-yl)cyclohexyl)methyl)-2-(1-(3-(trifluoromethyl)phenylsulfonyl)piperidin-2-yl)acetamide] to CN(CCC1CCC(c2ccccc2)(N2CCCC2)CC1)C(=O)CC(NS(=O)(=O)c1ccc2ccccc2c1)c1ccccc1 (stereo not drawn) [Compound 40, N-methyl-3-(naphthalene-2-sulfonamido)-3-phenyl-N-(2-(4-phenyl-4-(pyrrolidin-1-yl)cyclohexyl)ethyl)propanamide], the “μ opioid receptor [1 μM] % inhibition” value rises from 13% to 88%.
